Assay results published in ChEMBL document CHEMBL3751796, “Structure-Based Discovery of Novel Cyclophilin A Inhibitors for the Treatment of Hepatitis C Virus Infections” (J Med Chem, 2015).

Chains of the proteins cited; added tags and fusions are not shown. Lines headed by an entry give the natural chain unless they say otherwise; changes in a name come on top.
UniProt P23284: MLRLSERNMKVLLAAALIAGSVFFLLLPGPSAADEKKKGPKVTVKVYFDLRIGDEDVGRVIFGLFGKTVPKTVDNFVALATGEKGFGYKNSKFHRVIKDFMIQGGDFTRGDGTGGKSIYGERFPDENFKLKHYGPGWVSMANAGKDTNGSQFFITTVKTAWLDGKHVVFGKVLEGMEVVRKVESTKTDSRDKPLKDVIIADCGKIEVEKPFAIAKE
UniProt P62937, whole entry, looked up: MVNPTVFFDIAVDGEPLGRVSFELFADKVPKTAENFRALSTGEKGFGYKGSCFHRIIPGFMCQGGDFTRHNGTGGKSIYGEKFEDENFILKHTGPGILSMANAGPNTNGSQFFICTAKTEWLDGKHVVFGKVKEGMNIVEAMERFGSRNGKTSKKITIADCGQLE

Key:
[1] = molecular target: T1, Peptidyl-prolyl cis-trans isomerase B (Homo sapiens, UniProt P23284); experiment: Binding affinity to Cyclophilin B (unknown origin) by surface plasmon resonance analysis
[2] = molecular target: T2, Peptidyl-prolyl cis-trans isomerase A (Homo sapiens, UniProt P62937); settings: 0.625 nM
[3] = molecular target: T1, Peptidyl-prolyl cis-trans isomerase B; settings: 10 to 30 uM
[4] = molecular target: T2, Peptidyl-prolyl cis-trans isomerase A

- Ka [1]: 455 M⁻¹ s⁻¹
- Ka [2]: 3.2 ×10³ /M/s
- Ka [3]: 213 M⁻¹ s⁻¹
- Ka [4]: 8.1 ×10³ /M/s
SMILES: COc1cc(C(C(=O)NC2CCCCC2)N(C(=O)Cc2c[nH]c3ccccc23)c2ccc(C(C)C)cc2)cc(OC)c1OC (centres undefined)
